Molecular target: dipeptidyl peptidase IV (Homo sapiens, UniProt P27487)
Settings: read-out: IC50DPIV; values without "*" = IC-50

Amino acid sequences for entries named in this document (tags omitted).
UniProt P27487, whole entry, looked up: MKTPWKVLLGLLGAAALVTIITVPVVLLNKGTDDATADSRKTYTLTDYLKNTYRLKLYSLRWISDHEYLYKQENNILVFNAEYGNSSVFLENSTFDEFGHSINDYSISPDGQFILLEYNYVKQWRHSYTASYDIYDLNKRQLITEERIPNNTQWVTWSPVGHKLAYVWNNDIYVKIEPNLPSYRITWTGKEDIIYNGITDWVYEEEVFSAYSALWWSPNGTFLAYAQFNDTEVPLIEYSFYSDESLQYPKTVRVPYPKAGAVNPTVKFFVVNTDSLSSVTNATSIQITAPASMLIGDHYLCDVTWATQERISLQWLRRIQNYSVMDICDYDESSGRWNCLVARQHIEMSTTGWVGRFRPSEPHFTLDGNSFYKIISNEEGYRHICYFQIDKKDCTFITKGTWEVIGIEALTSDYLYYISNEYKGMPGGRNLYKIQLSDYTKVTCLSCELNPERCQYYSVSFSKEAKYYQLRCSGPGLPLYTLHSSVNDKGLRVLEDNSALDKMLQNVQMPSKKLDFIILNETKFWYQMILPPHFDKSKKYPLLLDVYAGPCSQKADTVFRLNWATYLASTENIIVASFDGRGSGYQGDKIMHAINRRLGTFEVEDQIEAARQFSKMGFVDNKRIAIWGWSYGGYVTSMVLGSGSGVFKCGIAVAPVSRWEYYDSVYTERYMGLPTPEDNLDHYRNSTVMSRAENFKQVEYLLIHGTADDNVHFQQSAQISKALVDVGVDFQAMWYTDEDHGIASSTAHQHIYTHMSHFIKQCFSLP

O=C(COc1ccc([N+](=O)[O-])cc1Br)N/N=C/c1cc([N+](=O)[O-])cc([N+](=O)[O-])c1O
IC50: 46.5 µM

Source: patent US20070037785A1, “Novel dipeptidyl peptidase IV inhibitors used for functionally influencing different cells and treating immunological, infammatory, neuronal, and other diseases” (priority 2003, published 2007)
